Values of other authors, collected in patent publication US20230104692A1, “DMEU ENHANCER” (priority 2020, published 2023).

Conditions: cited from earlier work

## Cc1cc2c(s1)Nc1ccccc1N=C2N1CCN(C)CC1 [Olanzapine]
  logP: 4.1
